# According to patent CN111196852A (SICHUAN KELUN BOTAI BIOMEDICAL CO LTD; ANYUAN MEDICINE TECH …, dated 2020):
# Chains of the proteins cited; added tags and fusions are not shown. Residues count along the entry.
# UniProt Q495A1, 22-244: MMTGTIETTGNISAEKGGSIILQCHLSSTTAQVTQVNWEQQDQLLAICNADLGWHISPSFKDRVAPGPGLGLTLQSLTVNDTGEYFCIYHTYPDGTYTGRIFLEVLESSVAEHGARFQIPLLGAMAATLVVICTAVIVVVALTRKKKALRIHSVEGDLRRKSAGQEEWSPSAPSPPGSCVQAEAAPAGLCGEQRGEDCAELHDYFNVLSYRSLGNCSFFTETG
# UniProt Q495A1, 22-141 limits assumed: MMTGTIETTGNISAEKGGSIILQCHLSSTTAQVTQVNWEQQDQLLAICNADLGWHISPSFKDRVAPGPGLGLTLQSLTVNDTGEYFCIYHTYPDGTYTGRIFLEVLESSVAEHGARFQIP
# How the values were obtained:
# [1] = target: T1, 全长TIGIT (Gene ID:201633), 表达于细胞表面 (UniProt Q495A1 22-244); assay: cell-based or functional assay
# [2] = target: T1, 全长TIGIT (Gene ID:201633), 表达于细胞表面; assay: cell-based or functional assay; remark: listed apart in the source
# [3] = target: T1, 全长TIGIT (Gene ID:201633), 表达于细胞表面; assay: flow cytometry competition on Jurkat-TIGIT cells; competitor FITC-CD155 (600 nM mixed 1:1 with the antibody)
# [4] = target: T1, 全长TIGIT (Gene ID:201633), 表达于细胞表面; assay: flow cytometry, NHS-Fluro labelled antibody on Jurkat-TIGIT cells
# 人TIGIT/mFc = target: T2, 人TIGIT/mFc (human, UniProt Q495A1 22-141, limits assumed); assay: ELISA, human TIGIT/mFc coated at 1 μg/ml, HRP anti-human IgG(H+L)
# T2 construct: Made in house (安源医药科技(上海)有限公司); not shown: mouse Fc (mFc)
Binder,"CDC活性 EC50 (Jurkat-TIGIT细胞, 20%豚鼠血清, OD450) [1]","ADCC活性 EC50 (Jurkat-NFAT/luciferase-CD16a效应细胞 + CHO-S-TIGIT靶细胞, 荧光素酶) [2]",IC50 [3],EC50 [4],EC50 (人TIGIT/mFc)
"人源化抗体AB12V8 (antibody, V domains shown) VH: QVQLVQSGAEVKKPGASVKVSCKASGYAFTNYLIEWIRQAPGQGLEWMGVINPGSGGTNYAQKLQGRVTLTADKSTNTAYMELRSLRSDDTAVYFCAGSYGSSYTFDYWGQGTLVTVSS VL: DIQMTQSPSSLSASVGDRVTITCRASQHVSTAVVWYQQKPGKAPKLLIYSPSYRYTGVPSRFSGSGSGTDFTLTISSLQPEDFATYYCHQHYSTPWTFGQGTKLEIK",0.84 nM,0.383 nM,14.6 nM,0.682 nM,–
"人源化抗体AB12V9 (antibody, V domains shown) VH: QVQLVQSGAEVKKPGSSVKVSCKASGFNIKDTYINWVRQAPGQGLEWMGRIDPASGDTKYAQKFQGRVTITTDTSTNTAYMELSSLRSEDTAVYYCPKSGDYGWYFDVWGQGTLVTVSS VL: EIVLTQSPDFQSVTPKEKVTITCRASQSISSNLHWYQQKPDQSPKLLIKYASQSISGVPSRFSGSGSGTDFTLTISSLEAEDAATYFCQQSNSWLTFGQGTKLEIK",0.82 nM,0.39 nM,29 nM,1.12 nM,–
"人源化抗体AB12V7 (antibody, V domains shown) VH: EVQLVQSGAEVKKPGATVKISCKASGFNIKDTYINWVQQAPGKGLEWIGRIDPANGDTKYAEKFQGRVTITTDTSSNTAYMELSSLRSEDTAVYYCPKSGDYGWYFDVWGQGTMVTVSS VL: DIVLTQSPDFQSVTPKEKVTITCRASQSISNNLHWYQQKPDQSPRLLIKYASQSISGVPSRFSGSGSGTYFTLTINSLEAEDAATYFCQQSNSWLTFGQGTKLEIK",–,–,–,–,0.0539 nM
"人源化抗体AB12V5 (antibody, V domains shown) VH: EVQLVQSGAEVVKPGATVKLSCKASGFNIKDTYINWVKQRPGKGLEWIGRIDPANGDTKYAEKFQGRATITTDTSSNTAYLQLSSLRSEDTAVYYCPKSGDYGWYFDVWGQGTMVTVSS VL: DIVLTQSPDFQSVTPKEKVTLSCRASQSISNNLHWYQQKPDQSPRLLIKYASQSISGIPSRFSGSGSGTYFTLSINSVEAEDFGMYFCQQSNSWLTFGQGTKLEIK",–,–,–,–,0.0474 nM
